Target: AD tau (Homo sapiens, UniProt P10636)
Details: AD brain homogenates preincubated with counterion alone

Amino acid sequences for entries named in this document (tags omitted). Residues count along the entry.
UniProt P10636, 623-695 limits assumed: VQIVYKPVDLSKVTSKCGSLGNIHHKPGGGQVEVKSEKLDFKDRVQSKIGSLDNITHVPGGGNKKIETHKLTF

OCCN(CCO)CCO
Inhibitory activity of counterions toward tau seeding: neither TEA nor Ca(OH)2 exhibited inhibitory activity

Source: paper PMC11756387, “Improving the solubility of pseudo-hydrophobic chemicals through co-crystal formulation” (PNAS Nexus, 2025)
